This experiment relates to U2OS. The experiment is described as follows: Cytotoxicity against human U2OS cells assessed as reduction in cell viability measured after 24 hrs by CCK8 assay. The format is functional, cell-based. On the technique in general: Tetrazolium dyes change colour on reduction, which living cells bring about.

Structures are written as SMILES.

With `CN1CCN(c2ccc(-c3nc(-c4ccc(-c5nc(-c6ccc(F)cc6)c(-c6ccc(N7CCN(C)CC7)cc6)[nH]5)cc4)[nH]c3-c3ccc(F)cc3)cc2)CC1`, the Activity entry is “Dose-dependent effect”.

These data come from ChEMBL document CHEMBL4715837, “Dimeric aryl-substituted imidazoles may inhibit ALT cancer by targeting the multimeric G-quadruplex in telomere” (Eur J Med Chem, 2020).
